# Test results taken from US20250066446A1, “FUSION PROTEINS FOR THE TREATMENT OF CARDIOMETABOLIC DISEASES” (Shattuck Labs, Inc., priority 2022, published 2025).
# Experiments:
# [1] = cited from earlier work; for half-life: in the body / blood / plasma
# [2] = Longer-term obesity model in HFD-fed mice; details: tail vein dosing Day 0 to Day 18
# Method: Mice (Male C57BL/6) were of approximately 13 weeks of age were housed 4 mice per cage. Following 2 weeks of acclimatation, mice were introduced to 60% kcal HFD (Research Diets D12492). Cages were changed once, then changed once a week. Weekly body weights and non-fasted blood glucose were collected.
# Mice were injected by tail vein with vehicle or the drugs on Day 0, Day 4, Day 7, Day 10, Day 14, and Day 18. Body weights were measured every 2 days. Change in body weight was calculated and plotted.
# Cumulative food intake was measured between day 0 and 3, between day 4 and 7, between day 7 and day 11, and between day 11 and day 14, and represented as average daily food intake. For food consumption, remaining food was weighed on days 3, 8, and 15, and subtracted from the starting weight. This value was then normalized to the number of mice in the cage, and the number of days the mice had access to the food prior to weighing.
# Blood glucose levels were measured on Days 0, 1, 10 and 15 and plotted.
# On day 19 during terminal necropsy, liver and subcutaneous white adipose tissue were recovered weighed from treated animals.
# To further analyze the changes in liver, histopathological analysis was conducted. Briefly, the liver tissue was stained with hematoxylin and eosin (H&E) and evaluated using standard techniques.
Substance,half-life [1] [min],half-life in circulation ([1]; in vivo) [min],"tolerability, clinical observations [2]"
Glucose-dependent insulinotropic polypeptide [GlP],2 to 5,2 to 5,
insulin,2 to 5,,
tirzepatide [reference compound],,,"moribund, lethargic, scruffy, and consumed significantly less food and water immediately post dose"
